Results reported in patent publication US11564923B2, “Compounds and pharmaceutical compositions thereof for the treatment of inflammatory disorders” (Galapagos NV, priority 2017, dated 2023).

Sequences of proteins named here, by UniProt entry; tags and fusion partners are left off. Residues count along the entry.
UniProt P29597, 871-1187 limits assumed: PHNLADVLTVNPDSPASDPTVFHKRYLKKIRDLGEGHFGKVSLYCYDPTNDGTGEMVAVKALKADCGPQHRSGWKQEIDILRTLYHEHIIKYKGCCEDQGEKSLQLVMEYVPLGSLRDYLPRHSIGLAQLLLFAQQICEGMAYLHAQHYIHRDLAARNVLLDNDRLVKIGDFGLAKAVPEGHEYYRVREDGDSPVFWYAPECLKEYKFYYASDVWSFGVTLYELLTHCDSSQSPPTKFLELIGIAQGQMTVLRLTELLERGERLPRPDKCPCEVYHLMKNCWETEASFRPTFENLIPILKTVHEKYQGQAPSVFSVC
UniProt O60674, 808-1132 limits assumed: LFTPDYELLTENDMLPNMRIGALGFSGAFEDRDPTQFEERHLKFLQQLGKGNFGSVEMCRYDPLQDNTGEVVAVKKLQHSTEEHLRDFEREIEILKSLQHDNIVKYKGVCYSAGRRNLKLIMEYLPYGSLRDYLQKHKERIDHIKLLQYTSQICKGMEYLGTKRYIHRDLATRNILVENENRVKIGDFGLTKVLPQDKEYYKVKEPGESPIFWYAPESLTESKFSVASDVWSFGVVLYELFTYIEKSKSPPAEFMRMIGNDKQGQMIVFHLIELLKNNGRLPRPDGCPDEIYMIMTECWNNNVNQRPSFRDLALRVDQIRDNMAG

Key:
[1] = biological target: Recombinant human TYK2 catalytic domain (amino acids 871-1187) (Homo sapiens, UniProt P29597); experiment: TYK2 radioactive assay polyGT substrate; format: biochemical; details: read-out: TYK2 IC50
[2] = biological target: Recombinant human JAK2 (catalytic domain, amino acids 808-1132) (Homo sapiens, UniProt O60674); experiment: JAK2 inhibition assay; format: biochemical; details: read-out: JAK2 potency IC50

In the case of Cc1cc(C#N)ncc1Oc1cc(Nc2ccc(C(=O)N3CCC4(CCOC4)C3)cn2)c2ncn(C)c2n1 (centres unmarked), the pIC50 [1] was 8.52 and the pIC50 [2] was 7.70.

pIC50: −log10 of the molar value.
